# Reference: ChEMBL document CHEMBL1138134, “Phthalazinones 2: Optimisation and synthesis of novel potent inhibitors of poly(ADP-ribose)polymerase” (Bioorg Med Chem Lett, 2006)
# The chains behind the UniProt entries cited, without tags or fusion partners.
# UniProt P09874, whole entry: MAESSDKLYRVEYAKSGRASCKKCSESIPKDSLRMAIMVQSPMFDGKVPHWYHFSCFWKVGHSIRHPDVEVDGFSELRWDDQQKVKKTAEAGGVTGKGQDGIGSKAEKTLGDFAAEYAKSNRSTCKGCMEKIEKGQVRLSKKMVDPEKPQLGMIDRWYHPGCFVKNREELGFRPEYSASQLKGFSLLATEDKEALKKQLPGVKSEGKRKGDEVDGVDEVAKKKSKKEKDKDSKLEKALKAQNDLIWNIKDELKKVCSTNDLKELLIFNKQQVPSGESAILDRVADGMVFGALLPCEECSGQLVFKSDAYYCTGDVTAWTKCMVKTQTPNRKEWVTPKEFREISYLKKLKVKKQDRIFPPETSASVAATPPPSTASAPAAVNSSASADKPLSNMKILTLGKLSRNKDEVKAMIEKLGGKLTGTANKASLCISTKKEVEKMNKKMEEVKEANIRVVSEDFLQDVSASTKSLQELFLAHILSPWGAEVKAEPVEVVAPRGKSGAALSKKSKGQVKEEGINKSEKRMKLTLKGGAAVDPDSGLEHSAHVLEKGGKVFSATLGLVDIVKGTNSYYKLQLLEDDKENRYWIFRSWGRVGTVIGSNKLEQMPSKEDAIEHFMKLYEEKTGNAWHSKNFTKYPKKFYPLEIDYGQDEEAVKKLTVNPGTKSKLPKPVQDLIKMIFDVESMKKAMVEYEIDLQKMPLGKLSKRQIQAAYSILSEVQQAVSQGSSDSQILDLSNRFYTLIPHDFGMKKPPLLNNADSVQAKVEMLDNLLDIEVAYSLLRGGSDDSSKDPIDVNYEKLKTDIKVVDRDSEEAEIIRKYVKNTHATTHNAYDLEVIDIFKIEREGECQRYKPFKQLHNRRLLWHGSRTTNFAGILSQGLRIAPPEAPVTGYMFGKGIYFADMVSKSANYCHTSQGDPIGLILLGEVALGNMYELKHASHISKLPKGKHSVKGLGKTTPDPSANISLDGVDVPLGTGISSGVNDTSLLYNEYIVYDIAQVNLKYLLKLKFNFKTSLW
# Molecular target: Poly [ADP-ribose] polymerase 1 (Homo sapiens, UniProt P09874)
# Experiment: Inhibitory activity against PARP1
row,Compound,IC50
1,O=C(c1cccc(Cc2n[nH]c(=O)c3ccccc23)c1)N1CCNCC1,16 nM
2,O=C(c1cc(Cc2n[nH]c(=O)c3ccccc23)ccc1F)N1CCCN(C2CCCCC2)CC1,5 nM
